The source of these data is US20080051419A1, “AMINE DERIVATIVES USEFUL AS ANTICANCER AGENTS” (PFIZER INC., priority 2006, published 2008).

By UniProt entry, the sequences of proteins in these tests, tags left out. Residues count along the entry.
UniProt P31749, 118-480 S473D limits assumed: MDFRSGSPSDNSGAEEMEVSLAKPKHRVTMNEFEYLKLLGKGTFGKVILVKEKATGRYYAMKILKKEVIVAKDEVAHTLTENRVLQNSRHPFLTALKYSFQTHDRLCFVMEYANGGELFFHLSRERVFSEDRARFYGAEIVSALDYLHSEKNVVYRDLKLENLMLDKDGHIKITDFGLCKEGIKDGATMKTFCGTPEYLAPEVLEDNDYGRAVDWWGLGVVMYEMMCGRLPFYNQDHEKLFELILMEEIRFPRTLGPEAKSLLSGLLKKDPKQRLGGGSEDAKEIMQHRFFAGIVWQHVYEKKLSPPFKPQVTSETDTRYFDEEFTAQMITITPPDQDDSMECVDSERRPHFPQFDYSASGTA

Each structure is given as a SMILES string. Where two headings read alike, the source gives them in different places.

The target in one assay is Akt1 (Homo sapiens, UniProt P31749, S473D). Description: Akt1 kinase assay, fluorescence polarization (IMAP). A general note: Fluorescence polarisation rises when a labelled molecule tumbles more slowly, as on binding a larger partner.
The target of assay [1] is PKA, catalytic subunit, recombinant (Homo sapiens, UniProt P17612). Briefly: PKA IMAP Kinase Assay.

`Cc1c[nH]c2ncnc(N3CC[C@](N)(CNC(=O)c4ccc(F)cc4)C3)c12`: on Akt1 (read-out: Avg Akt kinase, μM (50% inhibition), average Akt kinase activity (IC50)), the IC50 was 0.00303 µM.

`Cc1c[nH]c2ncnc(N3CCC(N)(CNc4ccccc4)CC3)c12`: the IC50 stood at 0.145 µM at Akt1 (read-out: Akt Kinase Activity, Table 6, selectivity study) and 81 nM in assay [1] (read-out: PKA Kinase Activity, Table 6, selectivity study). For the same compound, in assay [1] (PKA IC50 divided by Akt IC50), the Selectivity Ratio (PKA/Akt) was found to be 0.56.
